Experimental data taken from patent US20150361503A1, “METHODS FOR SELECTING THERAPEUTICS FOR TREATMENT OF HER2+ CANCERS” (Merrimack Pharmaceuticals, Inc., priority 2014, published 2015).

System: HER2+ cell lines
Assay: In vitro cell growth assays: drug combination effects (CellTiter-Glo cell viability)
Assay type: cell-based
Settings: presence of 5 nM exogenous HRG, regardless of genetic background
Description: Combination effects between MM-111, trastuzumab, lapatinib, MK-2206 and trametinib are evaluated by CTG cell viability assays. Cells (BT474-M3, NCI-N87, NCI-N87-PIK3CA(wt), NCI-N87-PIK3CA(H1047R), NCI-N87-PIK3CA(E454K), COLO-678, KYSE-410, ZR75-1, MDA-MB-361 or MDA-MB-175-VII) are seeded at 700 cells per 384-well plate in 10% FBS cell growth medium and treated with the five drugs, separately or in combination, at […], with and without 5 nM HRG-β1 pre-stimulation (for four hours). Cell viability was determined 72 hours later with CellTiter-Glo® luminescent cell viability assay (Promega).
Cell growth inhibition (CGI) as measured by CellTiter Glow® (CTG) assay over the 96-hour in vitro culture [CTGCTRL−CTGTREAT)/CTGCTRL] was described using a multivariate linear regression function of the Log10 drug concentrations (Ci):
Where N=number of input drugs (5: MM-111, lapatinib, trastuzumab, MK-2206, and GSK-1120212), and βi=regression coefficients, estimated by maximum likelihood estimation.
To assess the foregoing computational predictions experimentally, in vitro proliferative responses to MM-111, trastuzumab, and lapatinib combination treatments (MTL) were tested in eight HER2+ cell lines, as well as AKT and MEK inhibitor combinations, in the presence and absence of 5 nM exogenous HRG. […]

In the case of trastuzumab, the “effect of HRG on sensitivity of cells to the drug (cell growth inhibition)” value is reported as “desensitizes”.
